Laboratory results reported in patent US7750036B2, “Carvedilol salts, corresponding compositions, methods of delivery and/or treatment” (SB Pharmco Puerto Rico Inc., priority 2004, dated 2010).

Assay: Solubility in water of carvedilol free base and salts (shaken vials, UV-Vis)
Conditions: for solubility in water: room temperature

SMILES | Aqueous Solubility (Table 11, 25° C., 24 hr) | pH of the solution (Table 13, 25° C., 24 hr) | pH value when dissolved in water | Aqueous Solubility (Table 11, 25° C., 1 hr) | pH of the filtered solution (Table 11, 25° C., 1 hr) | Aqueous Solubility (Table 11, 25° C., 4 hr) | pH of the filtered solution (Table 11, 25° C., 4 hr) | pH of the filtered solution (Table 11, 25° C., 24 hr) | Aqueous Solubility (Table 11, 25° C., 48 hr) | pH of the filtered solution (Table 11, 25° C., 48 hr) | aqueous solubility compared with free base (Table 13) | Aqueous Solubility (Table 13, 25° C., 1 hr) | pH of the solution (Table 13, 25° C., 1 hr) | Aqueous Solubility (Table 13, 25° C., 4 hr) | pH of the solution (Table 13, 25° C., 4 hr) | Aqueous Solubility (Table 13, 25° C., 24 hr) | solubility in water (at 1 hour) [µg/mL] | solubility in water (at 48 hour) [µg/mL]
COc1ccccc1OCCNCC(O)COc1cccc2[nH]c3ccccc3c12 (racemic) [Carvedilol] | 0.0116 mg of carvedilol free base/mL of solution | (pH = 7.0) |  |  |  |  |  |  |  |  |  |  |  |  |  |  |  | 
COc1ccccc1OCCNCC(O)COc1cccc2[nH]c3ccccc3c12.O.O=C(O)CC(O)(CC(=O)O)C(=O)O (centres unmarked) [Carvedilol Mono-Citrate Salt, Carvedilol Monocitrate Monohydrate] | 1.07 mg of carvedilol free base/mL of solution | 3.2 | ~3 | 1.63 mg of carvedilol free base/mL of solution | 3.5 | 1.47 mg of carvedilol free base/mL of solution | 3.4 | 3.0 | 1.02 mg of carvedilol free base/mL of solution | 3.0 | much better aqueous solubility than the free base | 1.64 mg of Carvedilol free base/mL of solution | 3.3 | 1.74 mg of Carvedilol free base/mL of solution | 3.2 | 1.46 mg of Carvedilol free base/mL of solution | 1630 | 1020
